Measurements: patent US20110002953A1, “USE OF IMMIDAZOQUINOLINAMINES AS ADJUVANTS IN DNA VACCINATION” (priority 2000, published 2011)

System: activation of CD4 T cells

CC(C)Cn1cnc2c(N)nc3ccccc3c21 [imiquimod, 1-(2-methylpropyl)-1H-imidazo[4,5-c]quinolin-4-amine]
increase in activation of CD4 T cells (IL-2 ELISPOT), pVAC1.OVA + imiquimod compared with pVAC1.OVA alone (imiquimod 30 mg/kg, lymph node cells 6 days after immunisation): 70% | number of activated CD4 T cells in vivo (FIG. 3) (in words): increases
